Values quoted from earlier work, collected in patent US20110027809A1, “METHOD FOR EVALUATION OF DEGREE OF MALIGNANCY OF TUMOR CELL” (priority 2008, published 2011).

Tested on: breast cancer
Details: reported; cited from earlier work

Substance: trastuzumab [Herceptin]
- therapeutic effect against breast cancer: therapeutic effect
